Reference: patent US10378062B2, “Natural-killer/T-cell lymphoma (NKTCL) susceptibility prediction, diagnosis and therapy” (SINGAPORE HEALTH SERVICES PTE LTD, priority 2011, dated 2019)

System: STAT5 phosphorylation in KHYG-1 (JAK3 wild-type) cell line
Experiment: pSTAT5 immunoblotting in KHYG-1 cells treated with CP-690,550
Assay type: cell-based
Conditions: KHYG-1, increasing concentrations of CP-690,550, 48 h
Description: Experiments were repeated at least three times.
NK-S1 is a cell line established from a previously described NKTCL xenograft(7). The xenograft was derived from metastatic tumor of the testis from the same patient found to have both JAK1 (Y652D) and JAK3 (A572V) mutations. NK-S1 was cultured for more than 60 passages in DMEM medium supplemented with antibiotics, heat-inactivated FBS (10%) and equine serum (ES) (10%). […] KHYG-1 is an IL-2 dependent aggressive NK leukemia cell line obtained from the Japanese Collection of Research Bioresources, and it was cultured in RPMI medium supplemented with antibiotics, heat-inactivated FBS (10%), ES (10%) and 200 IU/ml of recombinant human IL-2 (Proleukin, Novartis)^7. […] K562 (CCL-234, ATC) is a chronic myeloid leukemia (CML) cell line positive for the BCR-ABL fusion gene.
Cells were washed with ice-cold phosphate buffer saline (PBS) and lysed in 50 μl of ice-cold RIPA buffer [25 mM Tris-HCL, pH 7.6, 150 mM NaCl, 1% Nonidet P-40, 1% sodium deoxycholate, 0.1% SDS, 1× Phosphatase Inhibitor (Cat. No. 78420, Thermo Fisher Scientific), 1× Protease Inhibitor (Cat. No. 12978000, Roche Diagnostics) and 1 mM Sodium Orthovanadate]. […] After centrifugation at 14,000 g for 15 minutes at 4° C., supernatants were removed and protein concentration was determined using Bio-Rad Protein assay (Cat. No. 500-0006, Bio-Rad Laboratories). […]

**Q.** How did the “pSTAT5 level by immunoblotting” value turn out when `C[C@@H]1CCN(C(=O)CC#N)C[C@@H]1N(C)c1ncnc2[nH]ccc12` [CP-690,550, 3-[(3R,4R)-4-methyl-3-[methyl(7H-pyrrolo[2,3-d]pyrimidin-4-yl)amino]piperidin-1-yl]-3-oxopropanenitrile] was run?
**A.** dose-dependent reduction of pSTAT5
